The results in this text go back to ChEMBL document CHEMBL1126608.

The chains behind the UniProt entries cited, without tags or fusion partners. Where a name states a change or a piece, a line headed by the entry shows the natural chain unless it says otherwise. Residues count along the entry.
UniProt Q8VH26, 1-587: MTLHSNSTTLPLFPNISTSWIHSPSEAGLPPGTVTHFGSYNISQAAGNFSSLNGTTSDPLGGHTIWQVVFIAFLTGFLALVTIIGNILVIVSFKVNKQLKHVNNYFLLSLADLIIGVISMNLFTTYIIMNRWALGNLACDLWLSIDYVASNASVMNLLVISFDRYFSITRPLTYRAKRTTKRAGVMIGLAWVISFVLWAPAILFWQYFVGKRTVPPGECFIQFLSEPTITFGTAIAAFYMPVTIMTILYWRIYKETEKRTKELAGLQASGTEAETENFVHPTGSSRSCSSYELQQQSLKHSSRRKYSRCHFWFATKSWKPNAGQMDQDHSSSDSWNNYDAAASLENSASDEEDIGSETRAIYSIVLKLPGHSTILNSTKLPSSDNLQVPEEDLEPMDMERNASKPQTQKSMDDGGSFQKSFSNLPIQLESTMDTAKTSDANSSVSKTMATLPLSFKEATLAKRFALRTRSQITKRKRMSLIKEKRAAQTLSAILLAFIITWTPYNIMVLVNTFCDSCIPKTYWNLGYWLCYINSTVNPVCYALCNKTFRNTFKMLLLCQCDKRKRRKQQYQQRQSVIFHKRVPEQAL
UniProt P08172, whole entry: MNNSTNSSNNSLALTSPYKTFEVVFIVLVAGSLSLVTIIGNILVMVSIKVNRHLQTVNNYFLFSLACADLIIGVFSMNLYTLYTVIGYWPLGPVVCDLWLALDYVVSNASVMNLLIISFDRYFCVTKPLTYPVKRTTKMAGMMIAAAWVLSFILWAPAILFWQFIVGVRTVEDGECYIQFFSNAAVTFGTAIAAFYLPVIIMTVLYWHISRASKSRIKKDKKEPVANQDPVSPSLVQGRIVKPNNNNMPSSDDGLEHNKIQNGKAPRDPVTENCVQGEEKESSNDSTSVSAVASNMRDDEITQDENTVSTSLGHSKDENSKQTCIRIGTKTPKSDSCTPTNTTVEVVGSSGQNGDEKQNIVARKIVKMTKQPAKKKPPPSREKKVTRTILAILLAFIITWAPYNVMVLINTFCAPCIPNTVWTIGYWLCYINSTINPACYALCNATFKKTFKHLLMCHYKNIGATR

Assay [1] concerns the target Muscarinic acetylcholine receptor M3 (Cavia porcellus) (UniProt Q8VH26). Briefly: Antagonist activity against muscarinic M3 receptor from guinea pig ileum. It counts as functional, tissue-based. A digest of the protocol: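 Longitudinal guinea pig ileum strips suspended in oxygenated Krebs buffer; carbachol concentration-response curves with or without at least three increasing antagonist concentrations (5-min preincubation). Contraction as % of maximal carbachol response without antagonist.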

Assay [2] addresses Muscarinic acetylcholine receptor M2 (Homo sapiens) (UniProt P08172). Briefly: Antagonist activity against muscarinic M2 receptor from guinea pig atria. Format: functional. Conditions: Cavia porcellus; target entry is the homologue from another species. A digest of the protocol:
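Isolated guinea pig right atria in Krebs-Henseleit buffer; cumulative carbachol concentration-rate response curves before and after at least three increasing antagonist concentrations (5-min preincubation). Responses as % of maximal carbachol-induced rate inhibition without antagonist.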

Assay [3] deals with Muscarinic acetylcholine receptor (Homo sapiens) (UniProt P20309+P08173+P11229+P08172+P08912). The following applies: Cavia porcellus.

Molecules are shown by their SMILES.
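For ID50 in this document: in vivo guinea pig assay: antimuscarinic effect measured as reduced salivation after carbachol stimulation.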

For `O=C(CN1CCN(Cc2ccccc2)CC1)C(O)(c1ccccc1)C1CCC1` (stereo not drawn), the antagonist equilibrium constant (Kb) was determined as 15 nM in assay [1] and 60 nM in assay [2]. This molecule had an ID50 in assay [3] of 14.7 mg/kg.
